One experiment has as its target h-TGR5 (Homo sapiens, UniProt Q8TDU6). In words: TGR5 cAMP Assay using Cisbio cAMP Dynamic 2 htrf assay kit.
The next experiment addresses human TGR5 (h-TGR5) (Homo sapiens, UniProt Q8TDU6). As to the kind of experiment: TGR5/CRE-Luciferase Assay.
Setting [1] is: read-out: cAMP (EC50), hTGR5CRE-luc HEK 293 cells, tested form: 2,2,2-trifluoroacetate.
The mark [2] stands for this setting: read-out: CRE-Luc Agonist (EC50), HEK 293 hTGR5/CRE-Luc cells, 6 hours incubation, tested form: 2,2,2-trifluoroacetate.

Chains of the proteins cited; added tags and fusions are not shown.
UniProt Q8TDU6, whole entry: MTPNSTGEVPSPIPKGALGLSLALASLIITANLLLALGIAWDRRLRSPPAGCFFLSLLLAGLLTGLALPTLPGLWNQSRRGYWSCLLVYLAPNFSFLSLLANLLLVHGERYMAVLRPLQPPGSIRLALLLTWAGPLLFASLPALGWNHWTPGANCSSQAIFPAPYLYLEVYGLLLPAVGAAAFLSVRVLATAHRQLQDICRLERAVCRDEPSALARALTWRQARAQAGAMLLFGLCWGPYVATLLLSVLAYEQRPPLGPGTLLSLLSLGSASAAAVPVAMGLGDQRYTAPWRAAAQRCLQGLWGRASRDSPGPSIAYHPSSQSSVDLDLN

The structures appear in SMILES notation. Where two headings read alike, the source gives them in different places.

Turning to `CCN(CCC[N+](C)(C)C)S(=O)(=O)c1cc(F)c(CSc2ncc(C(C)(C)c3ccc(Cl)c(OC)c3)n2-c2ccc(F)cc2)c(F)c1`, the EC50 on h-TGR5 (setting [1]) and on human TGR5 (h-TGR5) (setting [2]) was under 100 nM in each case.
As to `COc1cc(C(C)(C)c2cnc(SCc3c(F)cc(S(=O)(=O)N(CCC[N+](C)(C)C)C(C)(C)C(=O)O)cc3F)n2-c2ccc(F)cc2)ccc1Cl`, the EC50 was under 100 nM at h-TGR5 (read-out: cAMP (EC50), hTGR5CRE-luc HEK 293 cells, tested form: TFA salt) and under 100 nM at human TGR5 (h-TGR5) (read-out: CRE-Luc Agonist (EC50), HEK 293 hTGR5/CRE-Luc cells, 6 hours incubation, tested form: TFA salt).
`COc1cc(C(C)(C)c2cnc(SCc3c(F)cc(S(=O)(=O)N(CCCC[N+](C)(C)C)[C@H](C)C(=O)O)cc3F)n2-c2ccc(F)cc2)ccc1Cl`: the EC50 at h-TGR5 (setting [1]) and at human TGR5 (h-TGR5) (setting [2]) was under 100 nM throughout.

These data come from patent US8846739B2, “TGR5 agonists” (Exelixis Patent Company LLC, priority 2009, dated 2014).
